Screening data as filed in PubChem BioAssay.
PGC1a acetyl inh – inhibitors of PGC1a acetylation signal, primary screen, cell-based, U2OS, AlphaScreen, inhibitor mode; AlphaScreen anti-acetyl-lysine; with virally co-expressed GCN5 acetyltransferase; inhibition, % at 15.6 µM; hit rate 0.17% among 350,000; AID 651687, 2012;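 active = every replicate shows inhibition of at least 40%; inconclusive = mean inhibition at least 40% but some replicate below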
Statin myotox sup – suppressors of statin myotoxicity in C2C12 myotubes, primary screen, cell-based, single point, plate reader. C2C12 myotubes + simvastatin, ATP luminescence, 48 h; scaled: DMSO 0, geranylgeraniol control 100. rescue of ATP level, % at 7.49 µM. hit rate 0.78% among 330,000;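 active = mean ATP rescue above about 67%, or every replicate alone reaching that limit, limit read from the data, passing the limit was not always enough; inconclusive = no clear call, values can overlap the other calls; inactive = mean under the limit and some replicate under it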;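 also: myotubes were challenged with 10 µM simvastatin during compound exposure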
UUG fidelity – yeast start codon fidelity modulation; activity score, % at 18.7 µM; actives 0.13% (n = 350,000); S. cerevisiae UUG-firefly luciferase reporter, luminescence/redox ratio; AID 602363;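 active means replicate mean at a twofold rise or more, about +100% in these data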;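 further: firefly luciferase made from a UUG start codon reports start codon fidelity; reporter light over untreated wells divided by growth signal over untreated wells; some hits fall short of that in this replicate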
FN deposition inh – inhibitors of fibronectin matrix deposition, primary screen, AH1F cells, Alexa488-fibronectin fluorescence, plate reader. AH1F fibroblasts, overnight. inhibition, % at 12.6 µM. hit rate 0.086% among 350,000;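 active = mean inhibition across replicates of 30% or more, regardless of how many single replicates reach that level; inconclusive = mean under 30% yet at least half of replicates reach 30%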
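Schedule: 1 h cell adhesion before compound, then overnight fibronectin incubation; test system: AH1F fibroblast monolayer depositing Alexa488-labelled fibronectin into matrix; quantity: 10000 AH1F cells per well; probe or stimulus: fluorescent fibronectin at 24 nM final; signal: fluorescence, ex 485 nm, em 525 nm; evaluation: percent inhibition as loss of matrix-bound fibronectin fluorescence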
hiPSC survival – enhancers of single-cell hiPSC survival, primary screen, ATPlite luminescence | AID 602274, 2012 | 100% = ROCK inhibitor wells, 0% = DMSO | survival enhancement, % at 20 µM | hit rate 0.044% among 360,000; in the data active = survival enhancement above about 18%;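 also: cells exposed to compounds for 16 hours before the ATP read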
Hits are given with their value. Rows were chosen to be rich in hits. Some 0.91% of all compounds tested hit in one or more screens of this group.

Results for Cc1ccc(S(=O)(=O)Nc2ccc3c(c2)CC(=O)N([C@@H](C)CO)C[C@H](C)[C@H](CN(C)S(=O)(=O)c2cccs2)O3)cc1 ?
PGC1a acetyl inh: inactive; Statin myotox sup: inconclusive; UUG fidelity: inactive

Results for Cc1ccc(S(=O)(=O)Nc2ccc3c(c2)C(=O)N([C@@H](C)CO)C[C@@H](C)[C@@H](CN(C)S(=O)(=O)c2cccs2)O3)cc1 ?
PGC1a acetyl inh: inactive; Statin myotox sup: inactive; UUG fidelity: inactive

What do the screens show for `C[C@@H]1CN([C@H](C)CO)C(=O)Cc2cc(NC(=O)Nc3cccc4ccccc34)ccc2O[C@@H]1CN(C)S(=O)(=O)c1cccs1`?
PGC1a acetyl inh: inactive; Statin myotox sup: 75.2; UUG fidelity: inactive

How did Cc1ccc(S(=O)(=O)Nc2ccc3c(c2)CC(=O)N([C@@H](C)CO)C[C@H](C)[C@@H](CN(C)S(=O)(=O)c2cccs2)O3)cc1 do in these assays?
PGC1a acetyl inh: inactive; Statin myotox sup: 77.2; UUG fidelity: inactive

Results for Cc1ccc(S(=O)(=O)Nc2ccc3c(c2)C(=O)N([C@@H](C)CO)C[C@@H](C)[C@H](CN(C)S(=O)(=O)c2cccs2)O3)cc1 ?
PGC1a acetyl inh: inactive; Statin myotox sup: 99.6; UUG fidelity: inactive

How did C[C@@H]1CCCCO[C@@H](CN(C)CC2CC2)[C@H](C)CN([C@@H](C)CO)C(=O)c2cc(NS(=O)(=O)c3ccc(Cl)cc3)ccc2O1 do in these assays?
PGC1a acetyl inh: inactive; UUG fidelity: inactive

Results for COc1ccc(NC(=O)Nc2cccc3c2O[C@H](CN(C)Cc2ccc(Oc4ccccc4)cc2)[C@@H](C)CN([C@@H](C)CO)C3=O)cc1 ?
PGC1a acetyl inh: inactive; Statin myotox sup: inactive; UUG fidelity: inactive

Results for CCn1ncc(N(C)N)c(Cl)c1=O ?
PGC1a acetyl inh: inactive; Statin myotox sup: 88.8; UUG fidelity: inactive; FN deposition inh: inactive; hiPSC survival: inactive

Results for O=c1oc2ccccc2c(Nc2ccc(O)cc2)c1[N+](=O)[O-] ?
PGC1a acetyl inh: inactive; Statin myotox sup: 133.2; UUG fidelity: inactive; hiPSC survival: inactive

Results for COCC(=O)N(C)C1(c2nnnn2CCOC(=O)Nc2cccc3ccccc23)CCCC1 ?
PGC1a acetyl inh: inactive; Statin myotox sup: 97.6; UUG fidelity: inactive; hiPSC survival: inactive

Results for CCC(=O)Nc1ccc2c(c1)OC[C@H](C)N(CC1CCOCC1)C[C@@H](C)[C@H](OC)CN(C)C2=O ?
PGC1a acetyl inh: inactive; Statin myotox sup: inactive; UUG fidelity: inactive; FN deposition inh: inactive

Results for COc1cc(CN2CCN(Cc3ccccc3C(F)(F)F)CC2)cc(OC)c1OC ?
PGC1a acetyl inh: 63.3; Statin myotox sup: inactive; UUG fidelity: inactive; FN deposition inh: inactive; hiPSC survival: inactive

How did CCNC(=O)[C@@H]1[C@@H](CO)[C@@H]2Cn3c(cccc3=O)[C@@H]2N1Cc1cccc(F)c1 do in these assays?
Statin myotox sup: inactive

Results for Cc1cccc(NC(=S)NC2CC3C=CC2C3)c1 (stereo unspecified) ?
PGC1a acetyl inh: inactive; Statin myotox sup: 100.3; UUG fidelity: inactive; FN deposition inh: inactive; hiPSC survival: inactive

How did CCOC(=O)C1=NN(C(=O)Nc2ccc(OC)cc2)C2C(=O)N(c3cccc(C(F)(F)F)c3)C(=O)C12 (stereo unspecified) do in these assays?
PGC1a acetyl inh: inactive; Statin myotox sup: 101.7; UUG fidelity: inactive; hiPSC survival: inactive

Results for O=C(CCl)N=c1sccn1Cc1ccc(Cl)cc1Cl ?
PGC1a acetyl inh: 65.8; FN deposition inh: inactive; hiPSC survival: inactive

What do the screens show for `O=C(CCl)N=c1sccn1Cc1cccc2ccccc12`?
FN deposition inh: inactive; hiPSC survival: inactive

What do the screens show for `O=C(CCl)N=c1sccn1Cc1ccccc1Cl`?
PGC1a acetyl inh: 52.3; UUG fidelity: inactive; FN deposition inh: inactive; hiPSC survival: inactive

Results for COc1cccc(S(=O)(=O)Nc2ccc3c(c2)[C@H]2C[C@H](CC(=O)NCc4ccccc4F)O[C@H](CO)[C@H]2O3)c1 ?
PGC1a acetyl inh: inactive; Statin myotox sup: inactive

What do the screens show for `CN(C)CC(=O)N1[C@@H]2c3ccc(-c4cccnc4)c(=O)n3C[C@H]1[C@H](CO)[C@H]2C(=O)NC1CCC1`?
Statin myotox sup: inactive; FN deposition inh: inactive
